Laboratory results taken from patent publication US20200069772A1, “METHODS OF TREATING EARLY RHEUMATOID ARTHRITIS” (BRISTOL-MYERS SQUIBB COMPANY, priority 2014, published 2020).

Assays:
Type in all cases: in vivo, human
patients with early RA [1] = test: AVERT phase 3b randomized active-controlled trial: signs and symptoms (DAS-defined remission, other remission and ACR measures)
Text: Assessing Very Early Rheumatoid Arthritis Treatment (AVERT) was a phase 3b, randomized, active-controlled trial of 24 months, with a 12-month, double-blind treatment period.
The study population included adults (≥18 years old) with active clinical synovitis of ≥2 joints for ≥8 weeks, with persistent symptoms for ≤2 years; Disease Activity Score (DAS)28 (C-reactive protein [CRP])≥3.2 and anti-citrullinated peptide (CCP)-2 antibody positivity. […] Patients receiving oral corticosteroids were required to be on a stable dose (≤10 mg/day for ≥4 weeks) at initiation and to maintain that dose until Month 12.
SC abatacept was administered at 125 mg/week. […] All patients received concomitant folic acid therapy.
Patients with DAS28 (CRP)≥3.2 were discontinued.
For the purpose of this study, DAS-defined remission was DAS28 (CRP)<2.6.
Exploratory endpoints included: Other remission rates (Simplified Disease Activity Index [SDAI; ≤3.3], Clinical Disease Activity Index [CDAI; ≤2.8] and Boolean remission [28-joint tender joint count ≤1 and 28-joint swollen joint count ≤1 and patient global assessment of disease activity [0-10 cm]≤1 and high-sensitivity CRP≤1 mg/dL]), American College of Rheumatology (ACR) responses and Major Clinical Response (ACR 70 response for 6 months at any time period) in each arm.
Co-primary endpoints were tested in hierarchical fashion. […] All patients who discontinued prior to completing the treatment or withdrawal period were imputed as non-responders for the Month 12 or 18 analyses.
Endpoints of Disease Activity Score (DAS)-defined remission, SDAI remission, CDAI remission, Boolean remission, ACR 20/50/70 response and Major Clinical Response over time were summarized using descriptive statistics (with 95% confidence intervals at each time point). Missing remission data not due to premature discontinuation and not at Day 1 of the treatment period or at Day 169 of the withdrawal period was imputed as a remission if the missing value occurred between two observed remissions. Missing ACR response data not due to premature discontinuation and not at Day 1 of the treatment period or at Day 169 of the withdrawal period was imputed as an ACR response if the missing value occurred between two observed ACR responses.
For each treatment arm, a post hoc analysis was performed of mean baseline characteristics for patients who achieved DAS-defined remission at only Month 12 and at both Months 12 and 18, and of the proportions of patients who achieved DAS-defined remission based on these characteristics. An analysis of the overall treatment effect in mean change from baseline in DAS28 (CRP) (including data up to Month 12 of the treatment period) was performed for each treatment arm. Overall treatment effect and treatment differences between the three arms were obtained using a longitudinal repeated measures model including fixed categorical effects of treatment, months, and prior corticosteroid use as well as the continuous fixed covariate of baseline value. An unstructured covariance matrix was used to represent the correlation of the repeated measures within each subject.

patients with early RA [2] = test: AVERT trial: HAQ-DI response (≥0.3 points reduction from baseline)
patients with early RA [3] = test: AVERT trial: contrast MRI of wrist and hand (synovitis, osteitis, erosion score); conditions: at 12 months
Experimental: All patients underwent contrast magnetic resonance imaging (MRI) of the wrist and hand of the major affected upper limb at baseline and at 6, 12, 18 and 24 months.
Adjusted mean MRI change from baseline and standard error was calculated for all arms using a longitudinal repeated measures model. Safety assessments were based on the intent-to-treat population (patients who received≥1 dose of study medication). Analysis of other secondary endpoints is described in the supplementary information.

## Abatacept plus MTX: treatment arm: SC abatacept (CTLA4-Ig) 125 mg/week plus methotrexate titrated to 15-20 mg/week
Patients with early RA [1]; FIG. 4A-D and FIG. 5A-E
  other remission endpoints (SDAI, CDAI, Boolean), ACR responses and major clinical response versus MTX over time: numerically greater
Patients with early RA [1]; Month 12 of treatment period, patients with baseline DAS28 (CRP), discontinuations imputed as non-responders
  proportion of patients in DAS-defined remission (DAS28 [CRP]<2.6) at Month 12: 60.9%
Patients with early RA [1]; after withdrawal of all RA therapy at Month 12, only patients with DAS28 (CRP) available at baseline
  proportion of patients in DAS-defined remission (DAS28 [CRP]<2.6) at both Months 12 and 18: 14.8%
Patients with early RA [1]; after withdrawal of all therapy
  patients able to maintain drug-free remission through 6 months: one in four
Patients with early RA [1]; of the patients who entered the withdrawal period in DAS-defined remission at Month 12
  patients remaining in DAS-defined remission at Month 18: 24.7%
Patients with early RA [1]; post hoc subgroup: baseline DAS28 (CRP) >Median (5.4)
  Proportion of Patients with DAS-defined Remission (DAS28 [CRP] < 2.6) at Both Months 12 and 18: 3/59 (5.1) %
Patients with early RA [1]; post hoc subgroup: baseline DAS28 (CRP) Missing
  Proportion of Patients with DAS-defined Remission (DAS28 [CRP] < 2.6) at Both Months 12 and 18: 1/4 (25.0) %
Patients with early RA [1]; post hoc subgroup: baseline DAS28 (CRP) ≤Median (5.4)
  Proportion of Patients with DAS-defined Remission (DAS28 [CRP] < 2.6) at Both Months 12 and 18: 14/56 (25.0) %
Patients with early RA [1]; post hoc subgroup: baseline Erosion >Median (4.5)
  Proportion of Patients with DAS-defined Remission (DAS28 [CRP] < 2.6) at Both Months 12 and 18: 10/54 (18.5) %
Patients with early RA [1]; post hoc subgroup: baseline Erosion >Q1 (1.5)-Q2 (4.5)
  Proportion of Patients with DAS-defined Remission (DAS28 [CRP] < 2.6) at Both Months 12 and 18: 3/27 (11.1) %
Patients with early RA [1]; post hoc subgroup: baseline Erosion >Q2 (4.5)-Q3 (8.5)
  Proportion of Patients with DAS-defined Remission (DAS28 [CRP] < 2.6) at Both Months 12 and 18: 8/25 (32.0) %
Patients with early RA [1]; post hoc subgroup: baseline Erosion >Q3 (8.5)
  Proportion of Patients with DAS-defined Remission (DAS28 [CRP] < 2.6) at Both Months 12 and 18: 2/29 (6.9) %
Patients with early RA [1]; post hoc subgroup: baseline Erosion Missing
  Proportion of Patients with DAS-defined Remission (DAS28 [CRP] < 2.6) at Both Months 12 and 18: 1/15 (6.7) %
Patients with early RA [1]; post hoc subgroup: baseline Erosion ≤Median (4.5)
  Proportion of Patients with DAS-defined Remission (DAS28 [CRP] < 2.6) at Both Months 12 and 18: 7/50 (14.0) %
Patients with early RA [1]; post hoc subgroup: baseline Erosion ≤Q1 (1.5)
  Proportion of Patients with DAS-defined Remission (DAS28 [CRP] < 2.6) at Both Months 12 and 18: 4/23 (17.4) %
Patients with early RA [1]; post hoc subgroup: baseline HAQ-DI >Median (1.375)
  Proportion of Patients with DAS-defined Remission (DAS28 [CRP] < 2.6) at Both Months 12 and 18: 3/55 (5.5) %
Patients with early RA [1]; post hoc subgroup: baseline HAQ-DI Missing
  Proportion of Patients with DAS-defined Remission (DAS28 [CRP] < 2.6) at Both Months 12 and 18: 3/6 (50.0) %
Patients with early RA [1]; post hoc subgroup: baseline HAQ-DI ≤Median (1.375)
  Proportion of Patients with DAS-defined Remission (DAS28 [CRP] < 2.6) at Both Months 12 and 18: 12/58 (20.7) %
Patients with early RA [1]; post hoc subgroup: baseline Osteitis >Median (0.5)
  Proportion of Patients with DAS-defined Remission (DAS28 [CRP] < 2.6) at Both Months 12 and 18: 9/50 (18.0) %
Patients with early RA [1]; post hoc subgroup: baseline Osteitis >Q1 (0)-Q2 (0.5)
  Proportion of Patients with DAS-defined Remission (DAS28 [CRP] < 2.6) at Both Months 12 and 18: 2/13 (15.4) %
Patients with early RA [1]; post hoc subgroup: baseline Osteitis >Q2 (0.5)-Q3 (5)
  Proportion of Patients with DAS-defined Remission (DAS28 [CRP] < 2.6) at Both Months 12 and 18: 7/25 (28.0) %
Patients with early RA [1]; post hoc subgroup: baseline Osteitis >Q3 (5)
  Proportion of Patients with DAS-defined Remission (DAS28 [CRP] < 2.6) at Both Months 12 and 18: 2/25 (8.0) %
Patients with early RA [1]; post hoc subgroup: baseline Osteitis Missing
  Proportion of Patients with DAS-defined Remission (DAS28 [CRP] < 2.6) at Both Months 12 and 18: 1/15 (6.7) %
Patients with early RA [1]; post hoc subgroup: baseline Osteitis ≤Median (0.5)
  Proportion of Patients with DAS-defined Remission (DAS28 [CRP] < 2.6) at Both Months 12 and 18: 8/54 (14.8) %
Patients with early RA [1]; post hoc subgroup: baseline Osteitis ≤Q1 (0)
  Proportion of Patients with DAS-defined Remission (DAS28 [CRP] < 2.6) at Both Months 12 and 18: 6/41 (14.6) %
Patients with early RA [1]; post hoc subgroup: baseline Pain (100 mm VAS) >Median (62)
  Proportion of Patients with DAS-defined Remission (DAS28 [CRP] < 2.6) at Both Months 12 and 18: 4/65 (6.2) %
Patients with early RA [1]; post hoc subgroup: baseline Pain (100 mm VAS) Missing
  Proportion of Patients with DAS-defined Remission (DAS28 [CRP] < 2.6) at Both Months 12 and 18: 3/6 (50.0) %
Patients with early RA [1]; post hoc subgroup: baseline Pain (100 mm VAS) ≤Median (62)
  Proportion of Patients with DAS-defined Remission (DAS28 [CRP] < 2.6) at Both Months 12 and 18: 11/48 (22.9) %
Patients with early RA [1]; post hoc subgroup: baseline Synovitis >Median (4.5)
  Proportion of Patients with DAS-defined Remission (DAS28 [CRP] < 2.6) at Both Months 12 and 18: 5/47 (10.6) %
Patients with early RA [1]; post hoc subgroup: baseline Synovitis >Q1 (2)-Q2 (4.5)
  Proportion of Patients with DAS-defined Remission (DAS28 [CRP] < 2.6) at Both Months 12 and 18: 7/27 (25.9) %
Patients with early RA [1]; post hoc subgroup: baseline Synovitis >Q2 (4.5)-Q3 (8.5)
  Proportion of Patients with DAS-defined Remission (DAS28 [CRP] < 2.6) at Both Months 12 and 18: 3/23 (13.0) %
Patients with early RA [1]; post hoc subgroup: baseline Synovitis >Q3 (8.5)
  Proportion of Patients with DAS-defined Remission (DAS28 [CRP] < 2.6) at Both Months 12 and 18: 2/24 (8.3) %
Patients with early RA [1]; post hoc subgroup: baseline Synovitis Missing
  Proportion of Patients with DAS-defined Remission (DAS28 [CRP] < 2.6) at Both Months 12 and 18: 1/15 (6.7) %
Patients with early RA [1]; post hoc subgroup: baseline Synovitis ≤Median (4.5)
  Proportion of Patients with DAS-defined Remission (DAS28 [CRP] < 2.6) at Both Months 12 and 18: 12/57 (21.1) %
Patients with early RA [1]; post hoc subgroup: baseline Synovitis ≤Q1 (2)
  Proportion of Patients with DAS-defined Remission (DAS28 [CRP] < 2.6) at Both Months 12 and 18: 5/30 (16.7) %
Patients with early RA [1]; post hoc subgroup: symptom duration >6 Months
  Proportion of Patients with DAS-defined Remission (DAS28 [CRP] < 2.6) at Both Months 12 and 18: 4/49 (8.2) %
Patients with early RA [1]; post hoc subgroup: symptom duration >Median (0.37 years)
  Proportion of Patients with DAS-defined Remission (DAS28 [CRP] < 2.6) at Both Months 12 and 18: 6/61 (9.8) %
Patients with early RA [1]; post hoc subgroup: symptom duration ≤6 Months
  Proportion of Patients with DAS-defined Remission (DAS28 [CRP] < 2.6) at Both Months 12 and 18: 14/70 (20.0) %
Patients with early RA [1]; post hoc subgroup: symptom duration ≤Median (0.37 years)
  Proportion of Patients with DAS-defined Remission (DAS28 [CRP] < 2.6) at Both Months 12 and 18: 12/58 (20.7) %
Patients with early RA [1]; post hoc, overall treatment effect over the 12 months of the treatment period
  estimated treatment difference (95% CI) versus MTX in change from baseline in DAS28 (CRP): −0.52 (−0.74, −0.30)
Patients with early RA [1]; treatment period, FIG. 4A, from Day 57 (abatacept plus MTX), at most other time points (monotherapy)
  DAS-defined remission rates versus MTX over time: Numerically higher
Patients with early RA [2]; Month 12
  HAQ-DI Response (≥0.3), proportion of patients: 78 (65.5) %
Patients with early RA [2]; Month 12, listed as abatacept plus MTX
  HAQ-DI Response (≥0.3), proportion of patients: 65.5%
Patients with early RA [2]; Month 18
  HAQ-DI Response (≥0.3), proportion of patients: 26 (21.8) %
Patients with early RA [3]; FIG. 7A-C
  decreases from baseline in synovitis and osteitis scores by MRI, compared with MTX: numerically greater decreases
Patients with early RA [3]; FIG. 7C
  progression of erosion score by MRI, compared with MTX: less progression
